The assay addresses Carbonic anhydrase 9 (Homo sapiens, UniProt Q16790).

Molecules are shown by their SMILES.

Broadly, the Ki is a dissociation constant, usually derived from enzyme kinetics or from competition with a known ligand. With `[N-]=[N+]=N`, the affinity, expressed as Ki, was 5 µM.

(Values after ChEMBL document CHEMBL1138646, “Carbonic anhydrase inhibitors: inhibition of the membrane-bound human isozyme IV with anions” (Bioorg Med Chem Lett, 2004).)
